Key:
Assay in all cases: competition with [125I]-NDP-alpha-MSH, CHO-K1 cell membranes
[1] = target: T1, human melanocortin-4 receptor (human, UniProt P32245 1-332)
T1 construct: whole, on cells; Ki assays used cellular membranes of the CHO-K1 cells; cAMP assays used the whole cells; also called hMC4; hMC-R receptor subtype 4
Experimental: (§1) Competitive inhibition of [¹²⁵I](Tyr²)-(Nle⁴-D-Phe⁷)α-MSH ([¹²⁵I]-NDP-α-MSH, Amersham Biosciences®) binding was carried out in polypropylene 96 well plates. […] Bound [¹²⁵I]-NDP-α-MSH ligand was separated from free [¹²⁵I]-NDP-α-MSH by filtration through GF/C glass fiber filter plates (Unifilter®; Packard) presoaked with 0.1% (w/v) polyethylenimine (PEI), using a Packard Filtermate® harvester. Filters were washed three times with 50 mM Tris-HCl at pH 7.4 at a temperature of approximately 0-4° C. and then assayed for radioactivity using a Packard Topcount® scintillation counter. Binding data were analyzed by computer-assisted non-linear regression analysis (XL fit; IDBS).

Protein sequences, listed by entry. Tags and fused reporters are not part of them. Lines headed by an entry give the natural chain unless they say otherwise; changes in a name come on top.
UniProt P32245, whole entry: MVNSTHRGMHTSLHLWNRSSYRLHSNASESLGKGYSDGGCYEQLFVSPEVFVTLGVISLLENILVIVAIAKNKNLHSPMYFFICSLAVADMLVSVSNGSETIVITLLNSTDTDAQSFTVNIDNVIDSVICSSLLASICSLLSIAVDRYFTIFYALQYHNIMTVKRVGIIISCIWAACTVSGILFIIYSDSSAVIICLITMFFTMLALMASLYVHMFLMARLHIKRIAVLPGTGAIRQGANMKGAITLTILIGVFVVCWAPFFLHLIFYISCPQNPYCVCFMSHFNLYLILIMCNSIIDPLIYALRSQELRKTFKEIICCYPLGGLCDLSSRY
UniProt Q01726: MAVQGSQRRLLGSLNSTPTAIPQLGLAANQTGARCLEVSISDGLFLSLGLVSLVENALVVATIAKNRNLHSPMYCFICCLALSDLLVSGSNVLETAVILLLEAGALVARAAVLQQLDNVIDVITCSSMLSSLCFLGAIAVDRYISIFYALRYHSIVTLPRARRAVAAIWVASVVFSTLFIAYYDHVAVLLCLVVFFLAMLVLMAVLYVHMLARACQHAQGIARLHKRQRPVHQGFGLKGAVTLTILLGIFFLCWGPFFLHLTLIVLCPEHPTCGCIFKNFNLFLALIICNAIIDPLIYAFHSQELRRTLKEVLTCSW
UniProt P33032: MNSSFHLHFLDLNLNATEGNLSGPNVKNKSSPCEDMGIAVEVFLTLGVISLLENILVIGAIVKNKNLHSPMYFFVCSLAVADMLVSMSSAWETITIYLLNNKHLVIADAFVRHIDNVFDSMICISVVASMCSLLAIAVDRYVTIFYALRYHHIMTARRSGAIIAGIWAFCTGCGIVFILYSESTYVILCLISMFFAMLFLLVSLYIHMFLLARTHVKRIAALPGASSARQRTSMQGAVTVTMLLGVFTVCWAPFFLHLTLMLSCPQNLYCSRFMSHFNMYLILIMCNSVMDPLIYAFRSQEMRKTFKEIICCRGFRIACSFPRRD
UniProt P41968: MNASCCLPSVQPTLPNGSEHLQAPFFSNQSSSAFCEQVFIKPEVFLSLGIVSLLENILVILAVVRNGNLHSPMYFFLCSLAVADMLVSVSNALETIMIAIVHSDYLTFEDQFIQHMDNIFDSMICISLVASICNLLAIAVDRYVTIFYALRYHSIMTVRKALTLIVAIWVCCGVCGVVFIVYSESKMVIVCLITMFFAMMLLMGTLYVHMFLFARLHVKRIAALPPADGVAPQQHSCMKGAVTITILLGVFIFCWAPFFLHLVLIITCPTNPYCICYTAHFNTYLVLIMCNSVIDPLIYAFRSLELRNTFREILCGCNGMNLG

[2] = target: T2, human melanocortin-1 receptor (human, UniProt Q01726 1-317)
T2 construct: whole, on cells; Ki assays used cellular membranes of the CHO-K1 cells; cAMP assays used the whole cells; also called hMC1; hMC-R receptor subtype 1
Experimental: as §1

[3] = target: T3, human melanocortin-5 receptor (human, UniProt P33032 1-325)
T3 construct: whole, on cells; Ki assays used cellular membranes of the CHO-K1 cells; cAMP assays used the whole cells; also called hMC5; hMC-R receptor subtype 5
Experimental: as §1

[4] = target: T4, human melanocortin-3 receptor (human, UniProt P41968 1-323)
T4 construct: whole, on cells; Ki assays used cellular membranes of the CHO-K1 cells; cAMP assays used the whole cells; also called hMC3; hMC-R receptor subtype 3
Experimental: as §1

B1: Hydantoin(C(O)-(Aib-Gly))-cyclo(Cys-D-Ala-His-D-Phe-Arg-Trp-Cys)-NH2 (peptide)
peptide: CXHXRWC
modifications: hydantoin ring from Aib 1, C(O) and the amino group of Gly 2; Aib 1; D-Ala 4; D-Phe 6; disulfide Cys 3-Cys 9 (cyclo); C-terminal amide
Ki [1]: 13.7 nM | Ki [2]: 36.8 nM | Ki [3]: 133 nM | Ki [4]: 290 nM

B2: cyclo[Hydantoin(C(O)-(Leu-Cys))-D-Ala-His-D-Phe-Arg-Trp-Cys]-NH2 (peptide)
peptide: XHXRWC
modifications: not fully specified; hydantoin ring from Leu 1, C(O) and the amino group of Cys 2; D-Ala 3; D-Phe 5; disulfide Cys 2-Cys 8 (cyclo); C-terminal amide
Ki [1]: 27.9 nM | Ki [2]: 47.4 nM | Ki [4]: 1550 nM

B3: Hydantoin(C(O)-(A6c-Nle))-cyclo(Cys-D-Ala-His-D-Phe-Arg-Trp-Cys)-NH2 (peptide)
peptide: CXHXRWC
modifications: hydantoin ring from A6c 1, C(O) and the amino group of Nle 2; A6c 1; Nle 2; D-Ala 4; D-Phe 6; disulfide Cys 3-Cys 9 (cyclo); C-terminal amide
Ki [1]: 19.6 nM | Ki [2]: 31.6 nM | Ki [3]: 2500 nM | Ki [4]: 224 nM

B4: Hydantoin(C(O)-(Val-Nle))-cyclo(Cys-D-Ala-His-D-Phe-Arg-Trp-Cys)-NH2 (peptide)
peptide: CXHXRWC
modifications: not fully specified; hydantoin ring from Val 1, C(O) and the amino group of Nle 2; Nle 2; D-Ala 4; D-Phe 6; disulfide Cys 3-Cys 9 (cyclo); C-terminal amide
Ki [2]: 33.7 nM

B5: Hydantoin(C(O)-(Cha-Nle))-cyclo(Cys-D-Ala-His-D-Phe-Arg-Trp-Cys)-NH2 (peptide)
peptide: CXHXRWC
modifications: hydantoin ring from Cha 1, C(O) and the amino group of Nle 2; Cha 1; Nle 2; D-Ala 4; D-Phe 6; disulfide Cys 3-Cys 9 (cyclo); C-terminal amide
Ki [1]: 137 nM | Ki [2]: 40.8 nM | Ki [3]: 3560 nM | Ki [4]: 870 nM

B6: Hydantoin(C(O)-(Aib-Nle))-cyclo(Cys-D-Ala-His-D-Phe-Arg-Trp-Cys)-NH2 (peptide)
peptide: CXHXRWC
modifications: hydantoin ring from Aib 1, C(O) and the amino group of Nle 2; Aib 1; Nle 2; D-Ala 4; D-Phe 6; disulfide Cys 3-Cys 9 (cyclo); C-terminal amide
Ki [1]: 8.4 nM | Ki [2]: 17.7 nM | Ki [3]: 2120 nM | Ki [4]: 73.6 nM

Reference: patent US20210163536A1 (IPSEN PHARMA S A S, published 2021)
